Test results taken from ChEMBL document CHEMBL2429814 (J Med Chem, 2013).

Sequences of proteins named here, by UniProt entry; tags and fusion partners are left off.
UniProt P31424, whole entry: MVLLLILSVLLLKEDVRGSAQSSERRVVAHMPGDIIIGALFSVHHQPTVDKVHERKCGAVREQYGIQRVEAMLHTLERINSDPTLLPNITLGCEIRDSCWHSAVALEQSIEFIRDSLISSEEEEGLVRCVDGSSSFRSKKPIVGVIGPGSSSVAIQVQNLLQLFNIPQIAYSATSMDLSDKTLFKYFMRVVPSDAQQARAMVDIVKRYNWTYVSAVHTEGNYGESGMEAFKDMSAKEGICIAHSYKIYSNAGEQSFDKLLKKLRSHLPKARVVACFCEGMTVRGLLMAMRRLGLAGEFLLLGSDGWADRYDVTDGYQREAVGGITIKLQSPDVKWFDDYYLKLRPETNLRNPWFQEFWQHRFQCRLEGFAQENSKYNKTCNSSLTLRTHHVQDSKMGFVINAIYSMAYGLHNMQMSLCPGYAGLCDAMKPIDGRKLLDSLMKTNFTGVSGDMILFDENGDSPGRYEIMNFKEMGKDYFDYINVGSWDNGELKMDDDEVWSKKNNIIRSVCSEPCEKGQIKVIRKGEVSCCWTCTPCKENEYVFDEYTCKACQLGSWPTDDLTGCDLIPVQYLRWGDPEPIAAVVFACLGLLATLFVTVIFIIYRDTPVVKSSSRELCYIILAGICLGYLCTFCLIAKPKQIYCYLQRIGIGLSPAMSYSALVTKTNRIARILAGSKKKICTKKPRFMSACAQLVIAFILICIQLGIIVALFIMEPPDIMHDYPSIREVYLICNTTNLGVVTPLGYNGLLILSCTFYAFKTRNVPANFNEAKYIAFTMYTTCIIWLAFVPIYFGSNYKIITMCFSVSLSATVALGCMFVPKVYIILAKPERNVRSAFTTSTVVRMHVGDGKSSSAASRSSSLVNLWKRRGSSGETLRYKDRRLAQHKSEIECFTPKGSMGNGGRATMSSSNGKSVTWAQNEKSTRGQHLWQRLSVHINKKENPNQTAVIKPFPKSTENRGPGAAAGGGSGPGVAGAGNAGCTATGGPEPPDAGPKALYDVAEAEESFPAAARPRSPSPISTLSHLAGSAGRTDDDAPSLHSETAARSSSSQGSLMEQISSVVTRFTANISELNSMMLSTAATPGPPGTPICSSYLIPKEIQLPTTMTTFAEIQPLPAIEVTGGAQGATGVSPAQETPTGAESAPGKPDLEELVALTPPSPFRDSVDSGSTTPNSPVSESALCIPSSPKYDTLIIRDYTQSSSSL
UniProt P41594, whole entry: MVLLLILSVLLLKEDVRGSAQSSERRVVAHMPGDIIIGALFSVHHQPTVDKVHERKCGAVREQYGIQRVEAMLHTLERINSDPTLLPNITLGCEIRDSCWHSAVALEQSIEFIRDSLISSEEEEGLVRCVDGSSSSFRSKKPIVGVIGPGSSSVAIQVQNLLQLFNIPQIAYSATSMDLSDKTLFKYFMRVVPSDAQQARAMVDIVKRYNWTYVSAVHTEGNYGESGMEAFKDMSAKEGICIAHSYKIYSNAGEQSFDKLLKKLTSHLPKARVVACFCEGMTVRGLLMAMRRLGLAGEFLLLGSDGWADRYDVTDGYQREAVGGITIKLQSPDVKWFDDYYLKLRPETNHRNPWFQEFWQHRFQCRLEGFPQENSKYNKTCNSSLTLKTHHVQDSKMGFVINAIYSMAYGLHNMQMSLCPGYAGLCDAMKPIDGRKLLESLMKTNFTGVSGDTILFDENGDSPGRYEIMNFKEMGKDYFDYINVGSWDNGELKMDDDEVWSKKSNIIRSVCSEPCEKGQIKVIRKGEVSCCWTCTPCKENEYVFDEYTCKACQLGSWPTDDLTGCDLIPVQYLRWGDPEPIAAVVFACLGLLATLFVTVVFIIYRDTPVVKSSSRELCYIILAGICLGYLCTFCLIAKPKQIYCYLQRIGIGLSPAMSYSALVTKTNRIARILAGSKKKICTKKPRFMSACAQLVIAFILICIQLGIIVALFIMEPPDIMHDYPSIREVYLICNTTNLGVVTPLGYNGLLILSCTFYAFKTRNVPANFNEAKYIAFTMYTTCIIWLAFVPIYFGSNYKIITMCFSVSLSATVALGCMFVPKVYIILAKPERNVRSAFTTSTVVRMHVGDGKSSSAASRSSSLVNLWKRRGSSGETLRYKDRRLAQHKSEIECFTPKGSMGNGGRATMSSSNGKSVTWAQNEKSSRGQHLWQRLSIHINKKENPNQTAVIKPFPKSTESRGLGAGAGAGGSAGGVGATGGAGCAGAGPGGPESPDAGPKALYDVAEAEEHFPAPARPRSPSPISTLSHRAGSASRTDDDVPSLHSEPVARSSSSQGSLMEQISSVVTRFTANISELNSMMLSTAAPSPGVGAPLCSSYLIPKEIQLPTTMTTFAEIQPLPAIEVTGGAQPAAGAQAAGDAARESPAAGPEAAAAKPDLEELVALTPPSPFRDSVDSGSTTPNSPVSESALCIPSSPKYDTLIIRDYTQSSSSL

Assays:
[1] = molecular target: Metabotropic glutamate receptor 5 (Rattus norvegicus, UniProt P31424); assay: Positive allosteric modulation of rat mGluR5 stably expressed in CHO cells assessed as Ca2+ flux by FLIPR assay; assay type: functional, cell-based
[2] = molecular target: Metabotropic glutamate receptor 5 (Homo sapiens, UniProt P41594)

EC50 [1]: 98 nM
EC50 [2]: 27 nM
SMILES: N#Cc1cccc(C(=O)Nc2cc(-c3ccccc3)nn2-c2ccccc2)c1
